## Apparent affinities of Ab-95 variants for a coronavirus HR2 peptide

Data: MIT Lincoln Laboratory AlphaSeq set, Engelhart et al. 2022, doi:10.1038/s41597-022-01779-4, as distributed in FLAb.

All variants were tested on one target, the spike HR2 peptide PDVDLGDISGINAS (SARS-CoV-2).

The variants keep the heavy chain, the linker and the frameworks of Ab-95 (scFv order VH, a (GGGGS)3 linker, VL).
VH: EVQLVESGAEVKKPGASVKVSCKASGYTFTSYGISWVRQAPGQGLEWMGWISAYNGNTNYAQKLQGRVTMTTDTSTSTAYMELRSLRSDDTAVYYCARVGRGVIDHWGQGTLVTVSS
VL: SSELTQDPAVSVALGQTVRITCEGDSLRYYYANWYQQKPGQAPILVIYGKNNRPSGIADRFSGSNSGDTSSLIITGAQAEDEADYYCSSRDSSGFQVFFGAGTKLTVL

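Phage display of a naive human antibody library on the peptide gave the parent. The library (AAYL52) carries one to three amino acid substitutions per variant, with no insertions or deletions. The assay is AlphaSeq: two haploid yeast populations carry antibody and antigen on their surface. Binding brings cells together so that they mate, and sequencing counts the barcode pairs among the diploids. A regression on co-assayed BCL2-family reference pairs converts the normalised counts of each replicate to an apparent Kd. Mating was done three times.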

Each variant is given by its three light chain CDRs, as the data file delimits them; those of the parent are EGDSLRYYYAN, GKNNRPS, SSRDSSGFQVF. Scale: log10 of Kd in nM, estimated from mating counts; low values are strong binders. "ND" marks a missing value. The strain was present, yet no cells mated with the target were sequenced in that replicate, which points to weak or no binding. Background: pairings of library AAYL52 with three empty control strains gave a value in 28% of cases (median 3.91, 5th percentile 2.90). Values in that range, when seen in few replicates, are hard to tell from nonspecific mating. The control count says in how many pairings with the empty strains this scFv gave a signal.

With EGPSLRYYYFN | GKNNRCS | SSRDSSGFQVF the result was 4.23, 3.46, ND (controls 1 of 9).
With EGDSLRYYYAN | FKNNRPS | SSRDSSCFQVF the result was 4.04, ND, ND (controls 1 of 9).
With EGDLLRYYYAN | GKNNRPS | SSRDASMFQVF the result was ND, 4.18, ND (controls 5 of 9).
With EGDSLTYYYAN | GKNNRRS | VSRDSSGFQVF the result was 4.06, 3.29, 4.03 (controls 1 of 9).
With EGDELRYYYAN | GKNNRPH | SSRDVSGFQVF the result was ND, ND, ND (controls 1 of 9).
With EGMSLRYYYPN | GKNNRPS | SSRDSMGFQVF the result was 2.50, 2.31, 1.81 (controls 3 of 9).
With EGDMLRYYYAN | GKNNRPS | SSRDSSGFFVP the result was 3.12, 2.60, 1.20 (controls 2 of 9).
With ETDSLRYYYAN | FKNNRPS | SARDSSGFQVF the result was ND, 4.11, ND (controls 2 of 9).
With NGDSLRYYYAN | GKFNYPS | SSRDSSGFQVF the result was ND, ND, ND (controls 1 of 9).
With SGDSLRYYYAN | GKPNRGS | SSRDSSGFQVF the result was 4.34, ND, ND (controls 4 of 9).
With RGDSLRYYVAN | GKNNRPS | SSRDSSGIQVF the result was 2.01, 1.70, 1.58 (controls 6 of 9).
With EGDSLRYYYAN | GKNNRPS | SQRDWSGFQVF the result was 3.01, 2.51, 2.06 (controls 0 of 9).
With EGDSLRYYYAN | GRFNTPS | SSRDSSGFQVF the result was 4.05, 5.49, ND (controls 3 of 9).
With EGDSLRYYYAN | GKNNRPS | SSRSSDGFQVF the result was 3.27, 2.81, ND (controls 1 of 9).
With EGCSLRYYYAN | GKWNRPS | SARDSSGFQVF the result was 3.55, 4.13, 4.03 (controls 4 of 9).
With EGDSLRYYYAN | GKLNRRS | SSRGSSGFQVF the result was 5.11, ND, ND (controls 1 of 9).
With EKDSLRYYYSN | GKNNRPS | SSRDSSGFQNF the result was 3.06, ND, 2.80 (controls 1 of 9).
With EGDSLRYYYAN | GKNNRPP | SSRDSSLFCVF the result was 4.38, ND, ND (controls 1 of 9).
With EGVSLRYYKAN | GKNNRPS | SSRDSCGFQVF the result was 2.96, 2.82, 2.58 (controls 4 of 9).
With EGDSLRYYYAN | GHNNRPS | SSRDSSGFPVT the result was 2.92, 3.27, 3.86 (controls 2 of 9).
With PGKSLRYYYAN | GKNNRGS | SSRDSSGFQVF the result was 2.94, 3.21, 2.44 (controls 4 of 9).
With EVDSLRYYYAN | GHNLRPS | SSRDSSGFQVF the result was ND, ND, ND (controls 1 of 9).
With EGDSLRYYYAA | GKNYRPS | SSRDSSGFQVF the result was 3.89, ND, 3.04 (controls 1 of 9).
With EGDSLRRYYAN | GKNNRPS | SMRDSYGFQVF the result was ND, ND, ND (controls 3 of 9).
With EGDSLRYYYAN | GKNNRPD | SSRDSSGQQVC the result was 4.07, 3.87, 3.81 (controls 4 of 9).
With EGDGLRYYYAN | GKNNRPS | SSRDSVGFQTF the result was 2.31, 2.56, 1.95 (controls 7 of 9).
With EGDSLRYYYAK | GKNNRPE | SSRDKSGFQVF the result was ND, ND, ND (controls 2 of 9).
With EGDSLRYYYAN | GKNNRPE | SSRDSLGFQIF the result was 2.34, 2.49, 1.50 (controls 2 of 9).
With EGDSLRYYYAN | DKNNRPS | SSRDSSHAQVF the result was ND, ND, ND (controls 2 of 9).
With EGDSLRYAYAN | GTNNRPF | SSRDSSGFQVF the result was 1.19, 1.14, 0.58 (controls 1 of 9).
With EGDSLRYYYAF | GKNNRPS | SSRDQSGFKVF the result was ND, ND, ND (controls 0 of 9).
With EGDSLREQYAN | GKNNRPS | SSRDSSGFQVF the result was 0.65, 0.69, 0.13 (controls 4 of 9).
With EGDSLRGYYAN | AKNNRPS | SSRDESGFQVF the result was 1.81, 2.14, 1.69 (controls 1 of 9).
With EGDSRRYYYAN | GKNNRPS | SSRDSSGFQVF the result was 4.14, 3.73, ND (controls 4 of 9).
With EGDSLRYYYAN | GKNNRPS | SSRRNSPFQVF the result was ND, ND, ND (controls 3 of 9).
With EGDSLRWYYAN | GKNNRPS | SDRDSSGFQFF the result was 2.94, 3.30, 2.24 (controls 2 of 9).
With EGDAKRYYYAN | GKNNRPV | SSRDSSGFQVF the result was 2.75, ND, 2.47 (controls 2 of 9).
With EGDSLRYSYAN | GKNNRPS | SSRDSSEFQVV the result was ND, 3.98, ND (controls 0 of 9).

The first 2 entries again:

For EGPSLRYYYFN | GKNNRCS | SSRDSSGFQVF, the assay gave 4.23, 3.46, ND (controls 1 of 9).
For EGDSLRYYYAN | FKNNRPS | SSRDSSCFQVF, the assay gave 4.04, ND, ND (controls 1 of 9).

In this assay the parent's reference entry averaged 2.31; its copy inside this library read 2.25.